# Ab-14 light chain CDR variants: yeast mating affinities

Source: Li et al. 2023 (doi:10.1038/s41467-023-39022-2), MIT Lincoln Laboratory and A-Alpha Bio; data file from the FLAb repository.

All variants were tested on one target, the spike HR2 peptide PDVDLGDISGINAS (SARS-CoV-2).

Each scFv is VH, a 15-residue (Gly4Ser)3 linker, VL, as in the parent Ab-14, and differs from it in the CDRs of the light chain only.
VH: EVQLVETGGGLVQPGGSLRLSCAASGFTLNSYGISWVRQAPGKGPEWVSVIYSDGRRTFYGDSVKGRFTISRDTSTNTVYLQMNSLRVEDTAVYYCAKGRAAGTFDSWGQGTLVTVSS
VL: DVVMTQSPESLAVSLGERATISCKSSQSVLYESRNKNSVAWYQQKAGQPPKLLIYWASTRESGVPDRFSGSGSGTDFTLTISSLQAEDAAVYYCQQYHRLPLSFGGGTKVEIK

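The parent was found by panning a naive human phage display library on the peptide. The variants were designed computationally from a first round of random CDR variants and then made and measured. Several design methods are mixed in this list. AlphaSeq pools MATa yeast showing the antibodies with MATalpha yeast showing the peptide. After mating in shaken culture at 30 °C for 16 h, diploids were selected and their barcode pairs sequenced. The ratio of observed to expected reads was calibrated, replicate by replicate, on BCL2-family standards whose Kd was known from biolayer interferometry. The assay was run in six technical replicates.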

Each variant is given by its three light chain CDRs, as the data file delimits them; those of the parent are KSSQSVLYESRNKNSVA, WASTRES, QQYHRLPLS. The read-out is the apparent dissociation constant on a log10 scale (nM): the lower, the stronger. An entry "ND" has no value in the source: the pair was not observed among the diploids in that replicate. This suggests poor binding but is not conclusive. A sequence that the file lists under several names has all its replicates listed entry by entry, parted by semicolons. In the paper, a design with two or fewer of six values counts as a poor binder. A sequence measured in both rounds can read differently, since the two assays cover different ranges. Empty control strains, which show no peptide, gave a signal in 4% of pairings with all light chain designs; the median was 2.64 and 95% of these signals were weaker than 1.59. No background was subtracted. The parent sequence was in this pool as ten entries: three were never detected, three once, and four in most replicates, with averages from 0.34 to 2.37.

CDR-L1,CDR-L2,CDR-L3,"log10 Kd, replicates"
KSSQSFLGESRNKNSVA,WASTRES,QQYHRLPLS,0.70 0.98 1.60 0.68 0.84 0.68
KYEQSVLYESRNKNSVA,NASTRES,QQYHRLPLS,0.04 -0.13 -0.20 -0.40 -0.36 -0.07
KLQMSAEYQSRNKNSVA,SASQRES,QQYHRLPLS,0.22 -0.04 0.03 -0.16 -0.12 0.10
KLSWDDMSHFNTRSAVA,DMTMRAF,QQYNRLPLD,0.36 0.28 0.22 0.14 0.11 0.30
IASQSWLYESRNKNSVA,GASTRES,QQYHRLPLI,0.93 0.78 1.17 0.63 0.69 1.04
KLSQSWLYESRNKNSVA,NASTRES,QQYHRLPLM,-0.35 -0.38 -0.32 -0.63 -0.33 -0.53
KSSQSVLQESRNKNSVA,DASTRES,QQYHRLPLS,0.71 1.01 1.21 0.83 1.18 1.56; 0.19 0.34 0.35 0.06 0.12 0.28
KSSQSVLKESDNKNSVA,SASTRES,QQYHMLPPS,ND ND 2.36 ND ND 2.76
KLTMSYRFLTEEKNSIA,ELVTRMS,QQYHRLPLS,1.34 1.97 0.44 0.41 0.87 0.84
KLSQSVLYESRMKNSVA,NASTRMS,QQYHRLPLS,-0.04 -0.09 -0.24 -0.27 -0.25 -0.06
KSSQSDPYESRNKNSVA,GASTRES,QQYARLPLS,0.03 -0.26 -0.45 -0.61 -0.37 -0.26
KLSMSYRMESENKNSIA,ELVTRMS,QQYHRLPLS,1.03 1.13 0.69 0.81 0.52 0.85
SLTAHHQEAKSAENSIA,EAVMLES,QQYHQLPLM,ND ND ND ND ND ND
ALSGWEWAGNENINAVA,DRSALEW,QQYQRLPLS,1.08 0.99 0.52 0.40 0.52 0.91
MLDNCQDEYYQKNNNVA,EMNARCY,QQYGRLPLM,ND 2.68 2.59 ND 2.88 2.14
KSSQSVLYESGNKNSVA,HASTRED,QQYHRLPLS,0.40 0.18 0.24 0.33 0.44 0.66
FLSQSELYESRNKNSVA,NASTRMS,QQYHRLPLS,0.11 0.00 -0.01 0.03 -0.15 0.17
KQSSSTLYESGMKNSVA,NASKRMS,QQYHRLPLS,0.22 0.03 0.04 -0.06 0.01 0.03
KSSPSVGYESRNKASVA,WASTRES,QQYHILPLK,2.58 ND ND ND 3.32 2.18
KIQQSVLYESRNKNSVA,NASTRLS,QQYHRLPLS,0.08 -0.21 -0.07 -0.05 -0.17 0.02
QIYQAMHTLSQMKNNVA,DVNERGQ,QQYFRLPLS,0.35 0.21 -0.11 -0.06 0.15 0.08
KLANSTLYESRQPNSVA,WASTRES,QQYHRLPLS,1.19 0.77 0.62 0.84 0.75 1.52
KLSQSDLYESRNKNNVA,NCSLREM,QDYHRLPLS,1.06 1.08 1.04 1.11 0.99 1.08
KISSMVRVGATHSNSIA,EEAKRAD,QQYHRLPLA,0.18 0.13 0.30 0.16 -0.08 0.17
KHSQSVLYESRNFNSVA,WATTRES,QQYHRLPLY,ND ND ND ND ND ND
MFSQLMAYGSRYKNSVA,QASTRED,QQYERLPLS,0.15 0.50 0.30 0.27 0.45 0.39
HITYGMQVAGRAHSSIA,QAEERAK,QQYDRLPLI,0.79 0.67 0.47 0.75 1.05 0.85
YFDQASMTENDKGNSIA,EENHKYN,QQYFQLPLI,0.88 0.56 1.61 1.42 1.43 1.19
KISQSELYESRNKNSVA,NASTRCS,QQYHRLPLS,-0.32 -0.70 -0.39 -0.64 -0.28 -0.17
NLSYLQGEPTNSVNNVA,QTSKRAH,QQYQRLPLC,0.52 0.64 0.45 0.70 0.40 0.87
KSSQSVLFEIRNKNSVA,LASTRES,QQYHRLPMS,ND ND ND ND ND ND
KIDQSVCYESTNKNSVA,WASTRES,AQYHRLPLS,1.84 1.10 1.87 2.37 1.37 1.98
RFSQTEQMGIRDYNSVA,NGSTVAT,QHYSRLPIS,0.78 0.95 0.91 0.78 0.90 1.04
KLSQSWLYESRNKNSVA,EASQRES,QQYHRLPLS,0.32 0.26 0.21 0.13 0.11 0.30
KVSESELYESRNKNSVA,EASTRES,QQYHRLPLS,-0.10 -0.21 -0.34 -0.45 -0.31 -0.17
KLLQSVLYESRNKNSVA,HASTRED,QLYHRLPLS,1.95 1.30 1.15 1.10 1.11 1.37
KLMQSWDYESRNKNSVA,NASKRMS,QQYHRLPLS,0.26 0.27 0.55 0.30 0.47 0.37
KSSISFLYESMNKNSVA,EASTRES,QQYHRLPLS,0.78 1.18 1.29 0.67 0.77 0.77
TISQMQPLFSQSINNVA,EVSAREN,QQYDRLPLS,1.16 0.69 0.17 0.11 0.71 1.02
MLSEVLHMLGVKKNSIA,DLVLRAN,QQYHRLPLA,ND ND ND ND ND ND
KIEQLVFPYGPSWHSIA,NASTLLA,QQYYMLPLM,1.58 1.39 1.10 1.34 1.06 1.71
KSSWSWLYESRNKNSVA,GASAREV,QQYHRLPLS,0.12 -0.17 -0.31 -0.21 -0.12 0.15
KIDQSELEESRNKNSVA,WATVRED,QQYHRLPLS,0.45 0.43 0.24 0.29 0.21 0.47

A selection of 4 entries from above:

CDR-L1,CDR-L2,CDR-L3,"log10 Kd, replicates"
KLANSTLYESRQPNSVA,WASTRES,QQYHRLPLS,1.19 0.77 0.62 0.84 0.75 1.52
KSSQSVLQESRNKNSVA,DASTRES,QQYHRLPLS,0.71 1.01 1.21 0.83 1.18 1.56; 0.19 0.34 0.35 0.06 0.12 0.28
KSSQSVLYESGNKNSVA,HASTRED,QQYHRLPLS,0.40 0.18 0.24 0.33 0.44 0.66
NLSYLQGEPTNSVNNVA,QTSKRAH,QQYQRLPLC,0.52 0.64 0.45 0.70 0.40 0.87